From patent US4550116A, “Piperidine derivatives” (Fordonal, S.A., priority 1983, dated 1985)

Tests used:
in vivo = details: mouse, po
mice = assay: in vivo

CC(C)(C)c1ccc(C(=O)CCCN2CCC(OC(c3ccccc3)c3ccccc3)CC2)cc1 [Compound 1, 4-diphenylmethoxy-1-[3-(4-tert-butylbenzoyl)propyl]-piperidine]
LD50 at 48 h (in vivo): > 1000 mg/kg
oral toxicity in the mouse (mice): relatively low
